Laboratory results reported in publication PMC7956155, “Design and Evaluation of Peptide Dual-Agonists of GLP-1 and NPY2 Receptors for Glucoregulation and Weight Loss with Mitigated Nausea and Emesis” (Journal of Medicinal Chemistry, 2021).

Assay: Pooled rat liver microsomal stability assay
Type: in vitro ADME
Conditions: pooled male Sprague–Dawley rat liver microsomes 1 mg/mL, 30 μM peptide, 1 mM NADPH, 3 mM MgCl2/25 mM KH2PO4 pH 7.4, 37 °C, HPLC UV 206 nm, n = 3 independent assays

CC[C@H](C)[C@H](NC(=O)[C@H](Cc1ccccc1)NC(=O)[C@H](CCC(=O)O)NC(=O)[C@H](CCCNC(=N)N)NC(=O)[C@@H](NC(=O)[C@H](C)NC(=O)[C@H](CCC(=O)O)NC(=O)[C@H](CCC(=O)O)NC(=O)[C@H](CCC(=O)O)NC(=O)[C@H](CC(C)C)NC(=O)[C@H](Cc1ccc(O)cc1)NC(=O)[C@H](CCCCN=[N+]=[N-])NC(=O)[C@H](CO)NC(=O)[C@H](CC(C)C)NC(=O)[C@H](CC(=O)O)NC(=O)[C@H](CO)NC(=O)[C@@H](NC(=O)[C@H](Cc1ccccc1)NC(=O)[C@@H](NC(=O)CNC(=O)[C@H](CCC(N)=O)NC(=O)[C@@H](CO)NC(=O)[C@@H](N)Cc1c[nH]cn1)[C@@H](C)O)[C@@H](C)O)C(C)C)C(=O)N[C@@H](C)C(=O)N[C@@H](Cc1c[nH]c2ccccc12)C(=O)N[C@@H](CC(C)C)C(=O)N[C@@H](CCCCN)C(=O)N[C@@H](CC(N)=O)C(=O)NCC(=O)NCC(=O)N1CCC[C@H]1C(=O)N[C@@H](CO)C(=O)N[C@@H](CCCNC(=N)N)C(=O)N[C@@H](Cc1c[nH]cn1)C(=O)N[C@@H](Cc1ccc(O)cc1)C(=O)N[C@@H](CC(C)C)C(=O)N[C@@H](CC(N)=O)C(=O)N[C@@H](CC(C)C)C(=O)N[C@H](C(=O)N[C@H](C(=O)N[C@@H](CCCNC(=N)N)C(=O)N[C@@H](CCC(N)=O)C(=O)N[C@@H](CCCNC(=N)N)C(=O)N[C@@H](Cc1ccc(O)cc1)C(N)=O)[C@@H](C)O)C(C)C [GEP44]
half-life at 30 μM (over 120 min, read-out: t1/2 in rat liver microsomes): 2.27 h
slope (microsomal elimination fit) (sampled every 20 min over 120 min): –0.005087
